Experimental data published in PubChem BioAssay AID485298 (National Center for Advancing Translational Sciences (NCATS), 2010).
This is a selection; strong and weak results do not stand in their true shares. The source made the active and inactive calls. The call rests on the fitted dose curve; in most records, active means well fitted activation curve with a large enough effect; inconclusive means small, poorly fitted or top-dose-only effect; inactive means no such curve, though single readings can be large or run the other way.

Assay: qHTS Assay for Small Molecule Inhibitors of Mitochondrial Division or Activators of Mitochondrial Fusion; further: % of control where 0% means no effect; nearly all actives have a fitted effect of over 45% in size
Conditions: S. cerevisiae fusion-defective mutant growth rescue, CellTiterGlo 48 h; series mostly up to 46.1 µM; growth rescue (activation): at the top concentration
Excerpt: NIH Chemical Genomics Center [NCGC] NIH Molecular Libraries Probe Production centers Network [MLPCN] MLPCN Grant: MH081279-01 Assay Submitter (PI): Jodi M. Nunnari NCGC Assay Overview: The budding yeast S. cerevisiae is a powerful system to study mitochondrial fusion. Unlike other organisms, yeast cells without functional mitochondrial DNA (mtDNA) can be propagated and studied as long as they maintain a mitochondrial compartment and are provided with a fermentable carbon source. When mitochondrial fusion is blocked in yeast, mitochondrial tubules rapidly fragment and division continues unopposed. Under conditions where fusion is compromised in mammalian cells, nearly identical changes in mitochondrial structure have been observed. Thus, these findings indicate that steady state mitochondrial structure in cells is a characteristic and specific indicator of fusion activity. Mounting evidence has pointed to a connection between mitochondrial dynamics and apoptosis in mammalian cells. These studies indicate that in mammalian cells mitochondrial dynamics are more integrated into cellular processes than in yeast cells and have evolved not only to distribute the organelle but also to aid in the regulation of cellular homeostasis. Mitochondrial fusion proteins attenuate apoptosis by inhibiting the release of cytochrome c from mitochondria, in part by controlling cristae structures. Thus, small molecules that inhibit mitochondrial […] may promote apoptosis and potentially act as novel chemotherapeutics and stimulation of apoptosis has become an attractive target of anti-cancer therapies. To identify inhibitors of mitochondrial division, we exploit the growth phenotypes of mitochondrial fusion-defective mutants. The temperature sensitive fusion alleles, such as fzo1-1 and mgm1-5, cause mitochondrial membranes to fragment in cells under non-permissive conditions and cells lose mtDNA, and are unable to grow in the presence of non-fermentable carbon source glycerol. Inhibiting mitochondrial division rescues growth. We have developed and optimized a luminescence cell viability assay in 1536 well format for the identification of inhibitors in the yeast mitochondrial fusion-defective assay.
The yeast glycerol stocks where kindly supplied by the laboratory of Dr. Jodi Nunnari, University of California, Davis. All yeast glycerol stock solutions were stored in single use aliquots at -80C. The CellTiterGlo luminescence reagent, containing luciferase and luciferin, were purchased from Promega, and the reagents were stored according to manufacturer's instructions. The Buffer components for the YPEG yeast growth medium were purchased from Sigma-Aldrich (St. Louis, MO). YPEG growth medium: 1% (w/v) yeast extract, 2% (w/v) Bacto-peptone, 3% Ethanol, 3% glycerol, 0.4mM Tryptophan, 0.36mM Adenine. qHTS Assay Protocol: 1.#Dispense 2.5 ul yeast growth medium per 1536 well plate. 2.#Transfer 23 nl per well of compound to plate. 3.#Dispense 2.5 ul yeast solution at appropriate seeding density per well. 4.#Incubate for 48 hours at 37C. 5.#Dispense 5 ul of CellTiterGlow solution per well. 6.#Incubate at ambient for 10 minutes. 7.#Read using bio-luminescence protocol on Viewlux.

| Compound | growth rescue (activation) |
| --- | --- |
| O=C(OC1CN2CCC1CC2)c1ccccc1 (stereo not given) | inactive: 2.81% |
| CCC(=O)N1C2C3N(C(=O)CC)C1C1N(C(=O)CC)C(C(N1C(=O)CC)N3C(=O)CC)N2C(=O)CC | inactive: -0.0431% |
| O=C(NC1CCS(=O)(=O)C1)NP(=S)(Oc1ccccc1)Oc1ccccc1 (stereo not given) | inactive: -1.2% |
| CCNC(=S)/N=C(\N)N[N+](=O)[O-] | inactive: 0.938% |
| c1ccc(-c2nn[nH]n2)c(-c2nn[nH]n2)c1 | inactive: -1.87% |
| CCOC(=O)NC(Sc1ccccc1)C(Cl)(Cl)Cl (stereo not given) | inactive: -5.1% |
| Cc1ccc(NP(=O)(Oc2cccc(C)c2)Oc2cccc(C)c2)nc1 | inactive: -4.08% |
| CC(=O)Nc1ccc([As](=O)(O)O)c(O)c1 | inactive: 0.0169% |
| CC(=O)Nc1ccc(Oc2c([N+](=O)[O-])cc([N+](=O)[O-])cc2[N+](=O)[O-])cc1 | inactive: 2.44% |
| CC(=O)c1ccc(N2CC2c2ccncc2)cc1 (stereo not given) | inactive: -0.991% |
| Cc1ccccc1CN(C)C(=O)COC(=O)C(O)(c1ccccc1)c1ccccc1 | inactive: 17.6% |
| C[C@@H]1C=CCP(=O)(Oc2ccccc2)O1 (stereo not given in full) | inactive: -12.1% |
| C[C@H]1OP(=O)(Oc2ccccc2)C[C@@H]2O[C@@H]21 (stereo not given in full) | inactive: -3.68% |
| CC(C)(C)C(=O)NC(Sc1ccccc1)C(Cl)(Cl)Cl (stereo not given) | inactive: 17.2% |
| O=P1(Nc2nc3ccc(Cl)cc3s2)COc2ccccc2O1 (stereo not given) | inactive: 4.93% |
| CCOc1ccc(C2=NCC(CBr)S2)cc1 (stereo not given) | inactive: 0.506% |
| c1nnnn1CCn1cnnn1 | inactive: 1.47% |
| O=P(Nc1nccs1)(c1ccccc1)c1ccccc1 | inactive: -4.24% |
| CC(C)C(=O)NC(Sc1ccccc1)C(Cl)(Cl)Cl (stereo not given) | inactive: 3.85% |
| Nc1ccc([As](=O)(O)c2ccc([N+](=O)[O-])cc2)cc1 | inactive: 1.26% |
| C(Cc1nn[nH]n1)Cc1nn[nH]n1 | inactive: 2.83% |
| O=C(OC1CN2CCC1CC2)c1cccc(Cl)c1 (stereo not given) | inactive: -2.04% |
| O=[N+]([O-])c1ncn(CCn2cnc([N+](=O)[O-])n2)n1 | inactive: -4.43% |
| CC(=O)NC(SC(=S)N(C)C)C(Cl)(Cl)Cl (stereo not given) | inactive: -27.8% |
| O=[N+]([O-])c1ccc(O)c(/C=N/Nc2ccc([N+](=O)[O-])cc2[N+](=O)[O-])c1 | inactive: -21.4% |
| O=[As](O)(c1ccccc1)c1ccc(O)cc1 | inactive: -3.32% |
| O=P(Nc1nc2ccccc2s1)(c1ccccc1)c1ccccc1 | inactive: 1.64% |
| C[C@H]1OP(=O)(Oc2ccccc2)[C@H](O)[C@H](O)[C@H]1N=[N+]=[N-] (stereo not given in full) | inactive: 0.5% |
| CN(C)C1(CNC(=O)c2ccc(Cl)c(S(N)(=O)=O)c2)CCCCC1 | inactive: 0.7% |
| O=P(Nc1ccccn1)(c1ccc(Br)cc1)c1ccc(Br)cc1 | inactive: -2.56% |
